Results: US20200354426A1 (MEDIMMUNE LIMITED, priority 2016, published 2020)

Tested on: healthy volunteers
Details: for Subjects with TEAE: Abdominal distension / Subjects with TEAE: Abdominal pain / Subjects with TEAE: Application site erosion / Subjects with TEAE: Arrhythmia / Subjects with TEAE: Atrioventricular block second degree / Subjects with TEAE: Cardiac Disorders / Subjects with TEAE: Decreased appetite / Subjects with TEAE: Diarrhoea / Subjects with TEAE: Dizziness / Subjects with TEAE: Gastrointestinal Disorders / Subjects with TEAE: Headache / Subjects with TEAE: Immune System Disorders / Subjects with TEAE: Infections and infestations / Subjects with TEAE: Injury associated with device / Subjects with TEAE: Injury, poisoning and procedural complications / Subjects with TEAE: Metabolism and nutrition disorders / Subjects with TEAE: Musculoskeletal and connective tissue disorders / Subjects with TEAE: Musculoskeletal chest pain / Subjects with TEAE: Nasopharyngitis / Subjects with TEAE: Nausea / Subjects with TEAE: Nervous system disorders / Subjects with TEAE: Oropharyngeal pain / Subjects with TEAE: Procedural dizziness / Subjects with TEAE: Respiratory, thoracic and mediastinal disorders / Subjects with TEAE: Seasonal allergy / Subjects with TEAE: Ventricular extrasystoles / Subjects with TEAE: Vomiting / TEAE: Subject with at least one event: N = 6

Question: Which results are given for “L-Histidyl-L-seryl-L-glutaminylglycyl-L-threonyl-L-phenylalanyl-L-threonyl-L-seryl-L-alpha-aspartyl-(N6-[N-(1-oxohexadecyl)-L-gamma-gutamyl])L-lysy-L-sery-L-alpha-glutamyl-L-tyrosyl-L-leucyl-L-alpha-aspartyl-L-seryl-L-alpha-glutamyl-L-arginyl-L-alanyl-L-arginyl-L-alpha-L-aspartyl-L-phenylalanyl-L-valyl-L-alanyl-L-tryptophyl-L-leucyl-L-alpha-glutamyl-L-alanylglycylglycine [Peptide G933]”?
Answer: Subjects with TEAE: Abdominal distension (5 μg): 0; Subjects with TEAE: Abdominal pain (5 μg): 0; Subjects with TEAE: Application site erosion (5 μg): 0; Subjects with TEAE: Arrhythmia (5 μg): 0; Subjects with TEAE: Atrioventricular block second degree (5 μg): 0; Subjects with TEAE: Cardiac Disorders (5 μg): 0; Subjects with TEAE: Decreased appetite (5 μg): 0; Subjects with TEAE: Diarrhoea (5 μg): 0; Subjects with TEAE: Dizziness (5 μg): 0; Subjects with TEAE: Gastrointestinal Disorders (5 μg): 0; Subjects with TEAE: Headache (5 μg): 1 (16.7%); Subjects with TEAE: Immune System Disorders (5 μg): 0; Subjects with TEAE: Infections and infestations (5 μg): 1 (16.7%); Subjects with TEAE: Injury associated with device (5 μg): 0; Subjects with TEAE: Injury, poisoning and procedural complications (5 μg): 0; Subjects with TEAE: Metabolism and nutrition disorders (5 μg): 0; Subjects with TEAE: Musculoskeletal and connective tissue disorders (5 μg): 0; Subjects with TEAE: Musculoskeletal chest pain (5 μg): 0; Subjects with TEAE: Nasopharyngitis (5 μg): 1 (16.7%); Subjects with TEAE: Nausea (5 μg): 0; Subjects with TEAE: Nervous system disorders (5 μg): 1 (16.7%); Subjects with TEAE: Oropharyngeal pain (5 μg): 0; Subjects with TEAE: Procedural dizziness (5 μg): 0; Subjects with TEAE: Respiratory, thoracic and mediastinal disorders (5 μg): 0; Subjects with TEAE: Seasonal allergy (5 μg): 0; Subjects with TEAE: Ventricular extrasystoles (5 μg): 0; Subjects with TEAE: Vomiting (5 μg): 0; TEAE: Subject with at least one event (5 μg): 2 (33.3%); Subjects with TEAE: Abdominal distension (10 μg): 0; Subjects with TEAE: Abdominal pain (10 μg): 1 (16.7%); Subjects with TEAE: Application site erosion (10 μg): 0; Subjects with TEAE: Arrhythmia (10 μg): 0; Subjects with TEAE: Atrioventricular block second degree (10 μg): 1 (16.7%); Subjects with TEAE: Cardiac Disorders (10 μg): 1 (16.7%); Subjects with TEAE: Decreased appetite (10 μg): 0; Subjects with TEAE: Diarrhoea (10 μg): 1 (16.7%); Subjects with TEAE: Dizziness (10 μg): 1 (16.7%); Subjects with TEAE: Gastrointestinal Disorders (10 μg): 1 (16.7%); Subjects with TEAE: Headache (10 μg): 0; Subjects with TEAE: Immune System Disorders (10 μg): 0; Subjects with TEAE: Infections and infestations (10 μg): 0; Subjects with TEAE: Injury associated with device (10 μg): 0; Subjects with TEAE: Injury, poisoning and procedural complications (10 μg): 0; Subjects with TEAE: Metabolism and nutrition disorders (10 μg): 0; Subjects with TEAE: Musculoskeletal and connective tissue disorders (10 μg): 0; Subjects with TEAE: Musculoskeletal chest pain (10 μg): 0; Subjects with TEAE: Nasopharyngitis (10 μg): 0; Subjects with TEAE: Nausea (10 μg): 0; Subjects with TEAE: Nervous system disorders (10 μg): 1 (16.7%); Subjects with TEAE: Oropharyngeal pain (10 μg): 0; Subjects with TEAE: Procedural dizziness (10 μg): 0; Subjects with TEAE: Respiratory, thoracic and mediastinal disorders (10 μg): 0; Subjects with TEAE: Seasonal allergy (10 μg): 0; Subjects with TEAE: Ventricular extrasystoles (10 μg): 0; Subjects with TEAE: Vomiting (10 μg): 0; TEAE: Subject with at least one event (10 μg): 3 (50.0%); Subjects with TEAE: Abdominal distension (30 μg): 0; Subjects with TEAE: Abdominal pain (30 μg): 0; Subjects with TEAE: Application site erosion (30 μg): 1 (16.7%); Subjects with TEAE: Arrhythmia (30 μg): 0; Subjects with TEAE: Atrioventricular block second degree (30 μg): 0; Subjects with TEAE: Cardiac Disorders (30 μg): 0; Subjects with TEAE: Decreased appetite (30 μg): 0; Subjects with TEAE: Diarrhoea (30 μg): 0; Subjects with TEAE: Dizziness (30 μg): 1 (16.7%); Subjects with TEAE: Gastrointestinal Disorders (30 μg): 0; Subjects with TEAE: Headache (30 μg): 1 (16.7%); Subjects with TEAE: Immune System Disorders (30 μg): 1 (16.7%); Subjects with TEAE: Infections and infestations (30 μg): 0; Subjects with TEAE: Injury associated with device (30 μg): 0; Subjects with TEAE: Metabolism and nutrition disorders (30 μg): 0; Subjects with TEAE: Musculoskeletal and connective tissue disorders (30 μg): 1 (16.7%); Subjects with TEAE: Musculoskeletal chest pain (30 μg): 1 (16.7%); Subjects with TEAE: Nasopharyngitis (30 μg): 0; Subjects with TEAE: Nausea (30 μg): 0; Subjects with TEAE: Nervous system disorders (30 μg): 1 (16.7%); Subjects with TEAE: Oropharyngeal pain (30 μg): 0; Subjects with TEAE: Procedural dizziness (30 μg): 1 (16.7%); Subjects with TEAE: Respiratory, thoracic and mediastinal disorders (30 μg): 0; Subjects with TEAE: Seasonal allergy (30 μg): 1 (16.7%); Subjects with TEAE: Ventricular extrasystoles (30 μg): 0; Subjects with TEAE: Vomiting (30 μg): 0; TEAE: Subject with at least one event (30 μg): 4 (66.7%); subjects with vomiting (100 μg single dose): 1 subject; vomiting episodes (100 μg single dose): 1 episode; Subjects with TEAE: Abdominal distension (100 μg): 0; Subjects with TEAE: Abdominal pain (100 μg): 0; Subjects with TEAE: Application site erosion (100 μg): 0; Subjects with TEAE: Arrhythmia (100 μg): 1 (16.7%); Subjects with TEAE: Atrioventricular block second degree (100 μg): 0; Subjects with TEAE: Cardiac Disorders (100 μg): 1 (16.7%); Subjects with TEAE: Decreased appetite (100 μg): 0; Subjects with TEAE: Diarrhoea (100 μg): 0; Subjects with TEAE: Dizziness (100 μg): 0; Subjects with TEAE: Gastrointestinal Disorders (100 μg): 1 (16.7%); Subjects with TEAE: Headache (100 μg): 1 (16.7%); Subjects with TEAE: Immune System Disorders (100 μg): 0; Subjects with TEAE: Infections and infestations (100 μg): 0; Subjects with TEAE: Injury associated with device (100 μg): 0; Subjects with TEAE: Injury, poisoning and procedural complications (100 μg): 0; Subjects with TEAE: Metabolism and nutrition disorders (100 μg): 0; Subjects with TEAE: Musculoskeletal and connective tissue disorders (100 μg): 0; Subjects with TEAE: Musculoskeletal chest pain (100 μg): 0; Subjects with TEAE: Nasopharyngitis (100 μg): 0; Subjects with TEAE: Nausea (100 μg): 1 (16.7%); Subjects with TEAE: Nervous system disorders (100 μg): 1 (16.7%); Subjects with TEAE: Oropharyngeal pain (100 μg): 0; Subjects with TEAE: Procedural dizziness (100 μg): 0; Subjects with TEAE: Respiratory, thoracic and mediastinal disorders (100 μg): 0; Subjects with TEAE: Seasonal allergy (100 μg): 0; Subjects with TEAE: Ventricular extrasystoles (100 μg): 0; Subjects with TEAE: Vomiting (100 μg): 1 (16.7%); TEAE: Subject with at least one event (100 μg): 2 (33.3%); subjects with vomiting (150 μg single dose): 4 subjects; vomiting episodes (150 μg single dose): 9 episodes; subjects with significant vomiting (150 μg single dose (2 of 6 subjects)): 33.3%; Subjects with TEAE: Abdominal distension (150 μg): 2 (33.3%)

Read-outs that look alike come from different tables or passages of the source.
